The chains behind the UniProt entries cited, without tags or fusion partners.
UniProt P50613, whole entry: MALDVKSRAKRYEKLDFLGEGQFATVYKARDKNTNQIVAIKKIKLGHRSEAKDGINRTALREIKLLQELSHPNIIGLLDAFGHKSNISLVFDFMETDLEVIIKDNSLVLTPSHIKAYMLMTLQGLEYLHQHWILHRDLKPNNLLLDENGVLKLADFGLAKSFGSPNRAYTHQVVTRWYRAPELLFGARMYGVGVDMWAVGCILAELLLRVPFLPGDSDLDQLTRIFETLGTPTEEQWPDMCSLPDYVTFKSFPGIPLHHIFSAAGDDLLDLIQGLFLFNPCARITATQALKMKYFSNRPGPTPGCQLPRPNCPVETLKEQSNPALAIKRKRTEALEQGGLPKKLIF
UniProt P51948, whole entry partner: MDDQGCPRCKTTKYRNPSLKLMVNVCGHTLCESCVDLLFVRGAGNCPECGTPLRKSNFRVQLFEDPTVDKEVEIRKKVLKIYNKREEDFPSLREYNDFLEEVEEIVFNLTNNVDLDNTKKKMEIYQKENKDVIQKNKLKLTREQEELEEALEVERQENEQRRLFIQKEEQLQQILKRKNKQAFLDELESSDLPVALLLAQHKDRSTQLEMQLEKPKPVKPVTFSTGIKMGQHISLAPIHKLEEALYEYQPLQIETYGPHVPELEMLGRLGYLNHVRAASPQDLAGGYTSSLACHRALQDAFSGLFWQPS
UniProt P51946, whole entry partner: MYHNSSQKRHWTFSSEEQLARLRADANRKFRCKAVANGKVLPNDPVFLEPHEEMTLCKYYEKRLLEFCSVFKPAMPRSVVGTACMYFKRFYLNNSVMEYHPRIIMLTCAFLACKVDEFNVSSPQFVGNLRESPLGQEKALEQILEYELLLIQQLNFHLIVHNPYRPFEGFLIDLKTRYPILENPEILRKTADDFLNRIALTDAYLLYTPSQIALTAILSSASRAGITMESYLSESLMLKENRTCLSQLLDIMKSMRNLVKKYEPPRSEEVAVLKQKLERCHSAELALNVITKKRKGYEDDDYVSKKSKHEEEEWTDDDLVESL

In patent US10106526B2, “Inhibitors of cyclin-dependent kinase 7 (CDK7)” (SYROS PHARMACEUTICALS, INC., priority 2014, dated 2018):

What was measured:
A673 cells = assay: Inhibition of proliferation of A673 cells (CyQUANT, 72 hour); conditions: read-out: A673 IC50, 72 hour proliferation
Description: A673 cells are a cell line derived from human muscle Ewing's sarcoma. Representative compounds of the invention were tested at different concentrations (from 4 μM to 126.4 pM; 0.5 log serial dilutions) for their ability to inhibit the proliferation of A673 cells. Known CDK inhibitors flavopiridol and triptolide were used as positive controls. Cells were grown in Dulbecco's Modified Eagle's Medium, +10% FBS+1 mM Sodium Pyruvate. The cells were cultured at 37° C. in a humidified chamber in the presence of 5% CO2. Proliferation assays were conducted over a 72 hour time period. CyQUANT® (Life Technologies, Chicago, Ill. USA) was used to assess the anti-proliferative effects of the compounds following manufacturer's directions and utilizing the reagents supplied with the CyQUANT® kit. In this table, “A” represents an IC50 of less than 500 nM; “B” an IC50 of between 500 nM and 5 μM; and “C” an IC50 of greater than 5 μM.

[1] = molecular target: CDK7/Cyclin H/MAT1 trimeric complex (Homo sapiens, UniProt P50613); assay: CDK7 kinase assay, Caliper/LabChip EZ Reader (Biortus Biosciences); conditions: read-out: CDK7 Inhibition (IC50), CDK7/Cyclin H/MAT1 10 nM, ATP 2 mM, FAM-CDK7tide 2 μM, 30 min incubation

Row | SMILES | IC50 [1] | IC50 (A673 cells)
1 | C=CC(=O)N1CCC(CN[C@H]2CCC[C@@H](Nc3ncc(C(F)(F)F)c(-c4c[nH]c5ccccc45)n3)C2)C1 (some centres unmarked) | < 100 nM | < 500 nM
2 | C=CC(=O)N1CCC2(C1)CN([C@@H]1CCC[C@@H](Nc3ncc(Cl)c(-c4c[nH]c5ccccc45)n3)C1)C2 | < 100 nM | < 500 nM
3 | C=CC(=O)NCC1CN(C2CCCC(Nc3ncc(Cl)c(-c4c[nH]c5ccccc45)n3)C2)CCO1 (single isomer, unassigned) [335] | 100 to 1000 nM | < 500 nM
4 | C=CC(=O)N1CCC(C(=O)N[C@H]2CCC[C@@H](Nc3ncc(C(F)(F)F)c(-c4c[nH]c5ccccc45)n3)C2)CC1 | < 100 nM | < 500 nM
5 | C=CC(=O)N[C@H]1CC[C@H](CN[C@@]2(C)CCC[C@@H](Nc3ncc(Cl)c(-c4c[nH]c5ccccc45)n3)C2)CC1 | < 100 nM | < 500 nM
6 | C=CC(=O)N1CCN([C@H]2CCC[C@@H](Nc3ncc(Cl)c(-c4nsc5ccccc45)n3)C2)CC1 | 100 to 1000 nM | < 500 nM
7 | C=CC(=O)N1CCC2(CC1)CC(CN[C@H]1CCC[C@@H](Nc3ncc(Cl)c(-c4c[nH]c5ccccc45)n3)C1)C2 | < 100 nM | < 500 nM
8 | C=CC(=O)N1CCN([C@H]2CCC[C@@H](Nc3ncc(Cl)c(-c4c[nH]c5c(F)cccc45)n3)C2)CC1 | < 100 nM | < 500 nM
9 | C=CC(=O)N1CCN([C@H]2CCC[C@@H](Nc3ncc(C(F)(F)F)c(-c4c[nH]c5ccccc45)n3)C2)CC1 | < 100 nM | < 500 nM
10 | C=CC(=O)N1CCN([C@H]2CCC[C@@H](Nc3ncc(Cl)c(-c4noc5ccccc45)n3)C2)CC1 | 100 to 1000 nM | < 500 nM
11 | CN(C)C/C=C/C(=O)Nc1ccc(C(=O)N[C@H]2CCC[C@@H](Nc3ncc(Cl)c(-n4cnc5ccccc54)n3)C2)nc1 | < 100 nM | < 500 nM
12 | C=CC(=O)N1CCN([C@H]2CC[C@@H](Nc3ncc(Cl)c(-c4c[nH]c5ccccc45)n3)C2)CC1 | 100 to 1000 nM | < 500 nM
13 | CN(C)CC=CC(=O)Nc1cnc(CNC2CCCC(Nc3ncc(Cl)c(-c4n[nH]c5ccccc45)n3)C2)nc1 (centres unmarked) | < 100 nM | < 500 nM
14 | C=CC(=O)N1CCC(CN[C@H]2CCC[C@@H](Nc3ncc(CC)c(-c4c[nH]c5ccccc45)n3)C2)C1 (some centres unmarked) | 100 to 1000 nM | < 500 nM
15 | C=CC(=O)N1CCC2(CC1)CN([C@@H]1CCC[C@@H](Nc3ncc(Cl)c(-c4c[nH]c5ccccc45)n3)C1)C2 | < 100 nM | < 500 nM
16 | C=CC(=O)N1CCN([C@H]2CCC[C@@H](Nc3ncc(Cl)c(C4C(=O)Nc5ccccc54)n3)C2)CC1 (some centres unmarked) | > 1000 nM | > 5000 nM
17 | C=CC(=O)N1CCCN([C@H]2CCC[C@@H](Nc3ncc(Cl)c(-c4c[nH]c5ccccc45)n3)C2)CC1 | < 100 nM | < 500 nM
18 | C=CC(=O)N1CCN([C@@H]2CCC[C@@H](Nc3ncc(Cl)c(-c4c[nH]c5ccccc45)n3)C2)CC1C(F)(F)F (some centres unmarked) | > 1000 nM | < 500 nM
19 | C=CC(=O)N1CCN(CCN2CCC[C@@H](Nc3ncc(Cl)c(-c4c[nH]c5ccccc45)n3)C2)CC1 | < 100 nM | < 500 nM
20 | C=CC(=O)N1CCN([C@H]2CCC[C@@H](Nc3nc(-c4c[nH]c5ccccc45)ncc3Cl)C2)CC1 | > 1000 nM | < 500 nM
21 | C=CC(=O)NCC1CN(C2CCCC(Nc3ncc(Cl)c(-c4c[nH]c5ccccc45)n3)C2)CCO1 (single isomer, unassigned) [336] | < 100 nM | 500 to 5000 nM
22 | C=CC(=O)Nc1ccc(C(=O)N[C@H]2CCC[C@@H](Nc3ncc(Cl)c(-c4cccc5c4ccn5C)n3)C2)nc1 | 100 to 1000 nM | < 500 nM
23 | C=CC(=O)N1CCCC(N2CC(Nc3ncc(Cl)c(-c4c[nH]c5ccccc45)n3)C2)C1 (centres unmarked) | > 1000 nM | < 500 nM
24 | C=CC(=O)N1CCN([C@H]2CCC[C@@H](Nc3ncc(C#N)c(-c4c[nH]c5ccccc45)n3)C2)CC1 | < 100 nM | < 500 nM
25 | C=CC(=O)N1CCN([C@H]2CCC[C@@H](Nc3ncc(Cl)c(-c4c[nH]c5ccc(F)cc45)n3)C2)CC1 | < 100 nM | < 500 nM
26 | C=CC(=O)N1CCC(CN[C@H]2CCC[C@@H](Nc3ncc(Cl)c(-c4cn(C)c5ccccc45)n3)C2)CC1 | 100 to 1000 nM | < 500 nM

The next lines start with results.

Row | IC50 [1] | SMILES | IC50 (A673 cells)
27 | < 100 nM | CN(C)C/C=C/C(=O)N[C@H]1CC[C@H](CN[C@H]2CCC[C@@H](Nc3ncc(Cl)c(-c4c[nH]c5ccccc45)n3)C2)CC1 | < 500 nM
28 | < 100 nM | CN(C)C/C=C/C(=O)N1CCC2(C1)CN([C@H]1CCC[C@@H](Nc3ncc(Cl)c(-c4c[nH]c5ccccc45)n3)C1)C2 | < 500 nM
29 | < 100 nM | CN(C)C/C=C/C(=O)NC[C@H]1C[C@H]1C(=O)N[C@H]1CCC[C@@H](Nc2ncc(Cl)c(-c3c[nH]c4ccccc34)n2)C1 | < 500 nM
30 | < 100 nM | CN(C)C/C=C/C(=O)N1CC2(CCN([C@@H]3CCC[C@@H](Nc4ncc(Cl)c(-c5c[nH]c6ccccc56)n4)C3)C2)C1 | < 500 nM
31 | < 100 nM | CN(C)C/C=C/C(=O)N1CCN([C@H]2CCC[C@@H](Nc3ncc(Cl)c(-c4coc5ccccc45)n3)C2)CC1 | < 500 nM
32 | < 100 nM | C=CC(=O)N1CCC(CN[C@H]2CC[C@@H](Nc3ncc(Cl)c(-c4c[nH]c5ccccc45)n3)C2)CC1 | 500 to 5000 nM
33 | < 100 nM | CN(C)C/C=C/C(=O)NCC1CN([C@H]2CCC[C@@H](Nc3ncc(Cl)c(-c4c[nH]c5ccccc45)n3)C2)CCO1 (some centres unmarked) | < 500 nM
34 | < 100 nM | CN(C)C/C=C/C(=O)N1CCN(CCN2CCC[C@@H](Nc3ncc(Cl)c(-c4c[nH]c5ccccc45)n3)C2)CC1 | < 500 nM
35 | < 100 nM | CN(C)C/C=C/C(=O)NC[C@H]1C[C@@H]1C(=O)N[C@H]1CCC[C@@H](Nc2ncc(Cl)c(-c3c[nH]c4ccccc34)n2)C1 | < 500 nM
36 | < 100 nM | CN(C)C/C=C/C(=O)N1CC[C@@H](N(C)[C@H]2CCC[C@@H](Nc3ncc(Cl)c(-c4c[nH]c5ccccc45)n3)C2)C1 | < 500 nM
37 | 100 to 1000 nM | CN(C)C/C=C/C(=O)N1CCN2C[C@@H](Nc3ncc(Cl)c(-c4c[nH]c5ccccc45)n3)C[C@H]2C1 | < 500 nM
38 | < 100 nM | CN(C)C/C=C/C(=O)N1CC[C@H](N(C)[C@H]2CCC[C@@H](Nc3ncc(Cl)c(-c4c[nH]c5ccccc45)n3)C2)C1 | < 500 nM
39 | < 100 nM | CN(C)C/C=C/C(=O)Nc1cnn([C@H]2CCC[C@@H](Nc3ncc(Cl)c(-c4c[nH]c5ccccc45)n3)C2)c1 | < 500 nM
40 | < 100 nM | CN(C)C/C=C/C(=O)N1CCC(C)(CN[C@H]2CCC[C@@H](Nc3ncc(Cl)c(-c4c[nH]c5ccccc45)n3)C2)CC1 | < 500 nM
41 | < 100 nM | CN(C)C/C=C/C(=O)N1CCC(CN[C@H]2CCC[C@@H](Nc3ncc(Cl)c(-c4cnn5ccccc45)n3)C2)C1 (some centres unmarked) | < 500 nM
42 | 100 to 1000 nM | CON(C)C/C=C/C(=O)N1CCN([C@H]2CCC[C@@H](Nc3ncc(Cl)c(-c4c[nH]c5ccccc45)n3)C2)CC1 | < 500 nM
43 | < 100 nM | C=CC(=O)N1CC(CN[C@H]2CCC[C@@H](Nc3ncc(Cl)c(-c4c[nH]c5ccccc45)n3)C2)C1 | < 500 nM
44 | < 100 nM | CN(C)C/C=C/C(=O)N1CCC(CN[C@H]2CCC[C@@H](Nc3ncc(Cl)c(-c4n[nH]c5ccccc45)n3)C2)C1 (some centres unmarked) | < 500 nM
45 | 100 to 1000 nM | CN(C)C/C=C/C(=O)N1CCN([C@H]2CCC[C@@H](Nc3ncc(Cl)c(-c4cn(C)c5ccccc45)n3)C2)CC1 | < 500 nM
46 | < 100 nM | CN(C)C/C=C/C(=O)N1CCN([C@H]2CCC[C@@H](Nc3ncc(Cl)c(-c4c[nH]c5ccc(F)cc45)n3)C2)CC1 | < 500 nM
47 | < 100 nM | CN(C)C/C=C/C(=O)N1CCN([C@H]2CCC[C@@H](Nc3ncc(Cl)c(-c4c[nH]c5cccc(Cl)c45)n3)C2)CC1 | < 500 nM
48 | 100 to 1000 nM | C=CC(=O)N[C@H]1CCCN([C@@H]2CCC[C@@H](Nc3ncc(Cl)c(-c4c[nH]c5ccccc45)n3)C2)C1 | < 500 nM
49 | < 100 nM | C=CC(=O)N1CCC(N[C@H]2CCC[C@@H](Nc3ncc(Cl)c(-c4c[nH]c5ccccc45)n3)C2)CC1 | < 500 nM
